This experiment concerns the target T1, hMGMT (human O6-methylguanine-DNA-methyltransferase) (Homo sapiens, UniProt P16455).
T1 sequence (P16455 1-207): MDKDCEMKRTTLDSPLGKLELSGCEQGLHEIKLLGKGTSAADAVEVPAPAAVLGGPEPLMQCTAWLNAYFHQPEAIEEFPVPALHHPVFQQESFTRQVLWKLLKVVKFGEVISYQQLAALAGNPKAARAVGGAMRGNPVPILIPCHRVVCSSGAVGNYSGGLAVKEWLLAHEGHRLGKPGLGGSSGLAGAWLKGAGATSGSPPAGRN
The experiment is described as follows: FRET DNA nanoswitch repair assay with hMGMT. It counts as biochemical.

Drawing on article PMC8783695 (Angewandte Chemie (International ed. in English), 2021), this text covers IC50 for one compound.

The structures appear in SMILES notation.

The compound `Nc1nc(OCc2ccccc2)c2[nH]cnc2n1` [O6-BG, O^6-Benzylguanine] had an IC50 of 3.5 ± 2 µM.
